Assay results reported in patent US20220401452A1, “USE OF INHIBITORS OF ENHANCER OF ZESTE HOMOLOG 2” (The Board Of Regents of The University of Texas System, priority 2019, published 2022).

System: CWR22Rv1 xenografts
Assay: Test of EZH2 inhibitors in CWR22Rv1 xenograft mouse model
Format: in vivo, castrated nude mice
Experimental: FIG. 1F is a growth curve of xenograft tumors in castrated nude mice injected with CWR22Rv1 cells receiving vehicle (Veh) or GSK126, at the indicated doses.
Test of EZH2 Inhibitors in Xenograft Mouse Model. Male nude mice (Taconic) were castrated after 3 days of accommodation. CWR22Rv1 xenografts were established in the flanks of mice by injecting ˜2 million cells in 50% Matrigel (BD Biosciences). […] Tumors were measured 3 times every week and harvested after 3 weeks. Frozen samples were subjected to RT-qPCR and immunoblotting to study the expression of selected genes. All animal protocols were approved by the Beth Israel Deaconess Institutional Animal Care and Use Committee, and the experiments were performed in accordance with institutional and national guidelines.

Structure (SMILES): CCN(c1cc(-c2ccc(CN3CCOCC3)cc2)cc(C(=O)NCc2c(C)cc(C)[nH]c2=O)c1C)C1CCOCC1 [EPZ-6438]
- xenograft tumor growth (CWR22Rv1 subcutaneous xenografts, castrated mice, daily injection, 21 days of treatment): significantly retarded tumor growth
- mRNA and protein levels of EZH2-activated genes in xenograft tumor tissues (CWR22Rv1 xenografts): consistent decrease
